Results taken from ChEMBL document CHEMBL4219127, “Structural design, synthesis and substituent effect of hydrazone-N-acylhydrazones reveal potent immunomodulatory agents” (Bioorg Med Chem, 2018).

Legend:
[1] = tested on: Splenocyte; test: Antiinflammatory activity in BALB/c mouse splenocytes assessed as inhibition of concanavalin A-induced IL-2 level after 48 hrs by ELISA
[2] = tested on: J774; test: Antiinflammatory activity in BALB/c mouse J774 cells assessed as inhibition of LPS-induced COX2 mRNA level after 24 hrs by qRT-PCR method
[3] = tested on: Peritoneal macrophage; test: Antiinflammatory activity in BALB/c mouse peritoneal macrophages assessed as inhibition of LPS/IFNgamma-induced nitric oxide production after 24 hrs by Griess method
[4] = tested on: Splenocyte; test: Antiinflammatory activity in BALB/c mouse splenocytes assessed as inhibition of concanavalin A-induced IFN-gamma level after 48 hrs by ELISA
[5] = tested on: Peritoneal macrophage; test: Antiinflammatory activity in BALB/c mouse peritoneal macrophages assessed as inhibition of LPS/IFNgamma-induced IL-6 level after 4 hrs by ELISA
[6] = tested on: J774; test: Antiinflammatory activity in BALB/c mouse J774 cells assessed as inhibition of LPS-induced PGE2 biosynthesis after 24 hrs by enzyme immunoassay
[7] = tested on: Splenocyte; test: Antiinflammatory activity in BALB/c mouse splenocytes assessed as inhibition of concanavalin A-induced IL-4 level after 48 hrs by ELISA
[8] = tested on: Splenocyte; test: Antiinflammatory activity in BALB/c mouse splenocytes assessed as inhibition of concanavalin A-induced IL-17A level after 48 hrs by ELISA
[9] = tested on: Splenocyte; test: Cell cycle arrest in concanavalin A-stimulated BALB/c mouse splenocytes assessed as accumulation at G0/G1 phase at 2.5 to 10 uM after 48 hrs by propidium iodide staining-based flow cytometry
[10] = tested on: Peritoneal macrophage; test: Antiinflammatory activity in BALB/c mouse peritoneal macrophages assessed as inhibition of LPS/IFNgamma-induced IL-1beta level after 24 hrs by ELISA
[11] = tested on: Mus musculus; test: Antiinflammatory activity in carrageenan-induced BALB/c mouse peritonitis model assessed as reduction in number of neutrophils in peritoneal fluid at 80 mg/kg, po pretreated for 1 hr followed by carrageenan challenge measured after 4 hrs by hematoxylin and eosin staining-based assay relative to …
[12] = tested on: Splenocyte; test: Antiinflammatory activity in BALB/c mouse splenocytes assessed as inhibition of concanavalin A-induced IL-10 level after 48 hrs by ELISA
[13] = tested on: Splenocyte; test: Immunomodulatory activity in BALB/c mouse splenocytes assessed as inhibition of mouse anti-CD3/anti-CD28-induced lymphocyte proliferation by measuring [3H]-thymidine uptake after 48 hrs by scintillation counting analysis
[14] = tested on: Splenocyte; test: Immunomodulatory activity in BALB/c mouse splenocytes assessed as reduction in cellular calcineurin phosphatase activity at 1 to 12 uM after 72 hrs by colorimetric assay
[15] = tested on: Peritoneal macrophage; test: Antiinflammatory activity in BALB/c mouse peritoneal macrophages assessed as inhibition of LPS/IFNgamma-induced TNF-alpha secretion at 10 uM after 4 hrs by ELISA
[16] = tested on: Mus musculus; test: Antiinflammatory activity in carrageenan-induced BALB/c mouse peritonitis model assessed as reduction in number of neutrophils in peritoneal fluid at 20 mg/kg, po pretreated for 1 hr followed by carrageenan challenge measured after 4 hrs by hematoxylin and eosin staining-based assay relative to …

Question: With `CC(/C=N/Nc1ccc([N+](=O)[O-])cc1)=N\NC(=O)c1cc([N+](=O)[O-])cc([N+](=O)[O-])c1` as the compound, how does the inhibition [1] read?
Answer: The inhibition was “Dose-dependent effect”.

Question: And the inhibition [2]?
Answer: Its inhibition is “Dose-dependent effect”.

Question: What about the inhibition [3] of the same compound?
Answer: The inhibition was “Dose-dependent effect”.

Question: What about the inhibition [4] of the same compound?
Answer: Its inhibition is “Dose-dependent effect”.

Question: What about the inhibition [5] of the same compound?
Answer: The inhibition was “Dose-dependent effect”.

Question: And the inhibition [6]?
Answer: The inhibition was “Dose-dependent effect”.

Question: What about the inhibition [7] of the same compound?
Answer: The inhibition was “Dose-dependent effect”.

Question: And the inhibition [8]?
Answer: The inhibition was “Dose-dependent effect”.

Question: What about the Activity [9] of the same compound?
Answer: Its Activity is “Active”.

Question: And the inhibition [10]?
Answer: Its inhibition is “Dose-dependent effect”.

Question: What about the inhibition [11] of the same compound?
Answer: The inhibition was 30.6%.

Question: And the inhibition [12]?
Answer: Its inhibition is “Dose-dependent effect”.

Question: What about the inhibition [13] of the same compound?
Answer: The inhibition was “Dose-dependent effect”.

Question: What about the Activity [14] of the same compound?
Answer: The Activity was “Active”.

Question: And the inhibition [15]?
Answer: Its inhibition is “Active”.

Question: And the inhibition [16]?
Answer: The inhibition was 21.4%.

Calls of active or inactive are those of the source. No cut-off for these calls is given here.
